## Cyclic peptide permeability, from CycPeptMPDB

Collected by the curators of CycPeptMPDB (Li et al. 2023) from Kelly et al. 2021, doi:10.1021/jacs.0c06115.

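Conditions beyond the assay type are not listed; see the original paper. Other peptides of the study may be missing here. Peptides that the database sets to -10, its floor, are left out.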

PAMPA is the parallel artificial membrane permeability assay, which has no cells and reads passive diffusion. Permeability is in 10^-6 cm/s, converted from the database's log10 values; higher is more permeable.

compound,PAMPA (10^-6 cm/s)
CC(=O)N1CCC[C@H]1C(=O)N(C)[C@H](CC(C)C)C(=O)N[C@@H]1C(=O)N[C@H](CC2CCCCC2)C(=O)N[C@@H](CC(C)C)C(=O)N[C@H](CC(C)C)C(=O)N(C)[C@H](C)C(=O)N[C@@H](CC(C)C)C(=O)N2CCC[C@H]2C(=O)O[C@@H]1C,2.2
CC(=O)N[C@@H]1C(=O)N2CCC[C@H]2C(=O)N(C)[C@H](CC(C)C)C(=O)N[C@H](CC(C)C)C(=O)N[C@H](CC(C)C)C(=O)N(C)[C@H](CC(C)C)C(=O)N[C@@H](C)C(=O)N[C@@H](CC(C)C)C(=O)N2CCC[C@@H]2C(=O)O[C@@H]1C,0.14
CC[C@@H]1NC(=O)[C@@H](Cc2ccccc2)NC(=O)[C@@H](NC(=O)[C@@H](CC(C)C)N(C)C(=O)[C@@H]2CCCN2C(C)=O)[C@@H](C)OC(=O)[C@@H]2CCCN2C(=O)[C@H](CC(C)C)NC(=O)[C@@H](C)N(C)C(=O)[C@@H](CC2CCCCC2)NC1=O,2.6
CC(=O)N1CCC[C@H]1C(=O)N[C@@H]1C(=O)N(C)[C@H](CC(C)C)C(=O)N[C@H](CC(C)C)C(=O)N(C)[C@H](CC(C)C)C(=O)N(C)[C@@H](CC(C)C)C(=O)N[C@@H](C)C(=O)N[C@@H](CC(C)C)C(=O)N2CCC[C@@H]2C(=O)O[C@@H]1C,3
CC(=O)N[C@@H]1C(=O)N2CCC[C@H]2C(=O)N(C)[C@H](CC(C)C)C(=O)N[C@H](CC(C)C)C(=O)N(C)[C@H](CC(C)C)C(=O)N(C)[C@H](CC(C)C)C(=O)N[C@@H](C)C(=O)N[C@@H](CC(C)C)C(=O)N2CCC[C@@H]2C(=O)O[C@@H]1C,0.4
CC(=O)N1CCC[C@H]1C(=O)N[C@@H]1C(=O)N(C)[C@H](CC(C)C)C(=O)N[C@H](CC(C)C)C(=O)N(C)[C@H](CC(C)C)C(=O)N(C)[C@H](CC(C)C)C(=O)N[C@@H](C)C(=O)N[C@@H](CC(C)C)C(=O)N2CCC[C@@H]2C(=O)O[C@@H]1C,0.12
CC(=O)N1CCC[C@H]1C(=O)N[C@@H]1C(=O)N(C)[C@H](CC(C)C)C(=O)N(C)[C@H](CC(C)C)C(=O)N[C@H](CC(C)C)C(=O)N(C)[C@H](CC(C)C)C(=O)N[C@H](C)C(=O)N[C@@H](CC(C)C)C(=O)N2CCC[C@@H]2C(=O)O[C@@H]1C,7.8
CCC[C@H]1NC(=O)[C@@H](NC(=O)[C@@H](CC(C)C)N(C)C(=O)[C@@H]2CCCN2C(C)=O)[C@@H](C)OC(=O)[C@@H]2CCCN2C(=O)[C@H](CC(C)C)NC(=O)[C@@H](C)N(C)C(=O)[C@@H](Cc2cccc3ccccc23)NC(=O)[C@H](CC(C)C)NC1=O,7.2
CC(=O)N1CCC[C@H]1C(=O)N(C)[C@H](CC(C)C)C(=O)N[C@@H]1C(=O)N[C@H](Cc2ccc(F)cc2)C(=O)N[C@@H](CCc2ccccc2)C(=O)N[C@H](CC(C)C)C(=O)N(C)[C@H](C)C(=O)N[C@@H](CC(C)C)C(=O)N2CCC[C@H]2C(=O)O[C@@H]1C,3.4
CC(=O)N[C@@H]1C(=O)N2CCC[C@H]2C(=O)N(C)[C@H](CC(C)C)C(=O)N[C@@H](CC(C)C)C(=O)N[C@@H](CC(C)C)C(=O)N(C)[C@@H](CC(C)C)C(=O)N[C@@H](C)C(=O)N[C@@H](CC(C)C)C(=O)N2CCC[C@@H]2C(=O)O[C@@H]1C,0.16
COc1ccc(C[C@@H]2NC(=O)[C@@H](Cc3cccc4ccccc34)NC(=O)[C@@H](NC(=O)[C@@H](CC(C)C)N(C)C(=O)[C@@H]3CCCN3C(C)=O)[C@@H](C)OC(=O)[C@@H]3CCCN3C(=O)[C@H](CC(C)C)NC(=O)[C@@H](C)N(C)C(=O)[C@@H](Cc3ccc(F)c(F)c3)NC2=O)cc1,0.14
CC(=O)N1CCC[C@H]1C(=O)N(C)[C@H](CC(C)C)C(=O)N[C@@H]1C(=O)N[C@H](CC(C)C)C(=O)N[C@@H](Cc2ccccc2)C(=O)N[C@H](CC2CCCCC2)C(=O)N(C)[C@H](C)C(=O)N[C@@H](CC(C)C)C(=O)N2CCC[C@H]2C(=O)O[C@@H]1C,7.1
CC(=O)N1CCC[C@H]1C(=O)N(C)[C@H](CC(C)C)C(=O)N[C@@H]1C(=O)N[C@H](Cc2ccccc2)C(=O)N[C@@H](CCc2ccccc2)C(=O)N[C@H](Cc2ccc(F)cc2)C(=O)N(C)[C@H](C)C(=O)N[C@@H](CC(C)C)C(=O)N2CCC[C@H]2C(=O)O[C@@H]1C,1.7
CC(=O)N[C@@H]1C(=O)N2CCC[C@H]2C(=O)N(C)[C@H](CC(C)C)C(=O)N(C)[C@@H](CC(C)C)C(=O)N(C)[C@@H](CC(C)C)C(=O)N(C)[C@@H](CC(C)C)C(=O)N[C@H](C)C(=O)N[C@@H](CC(C)C)C(=O)N2CCC[C@@H]2C(=O)O[C@@H]1C,7.8
CC(=O)N1CCC[C@H]1C(=O)N(C)[C@H](CC(C)C)C(=O)N[C@@H]1C(=O)N[C@H](Cc2ccccc2)C(=O)N[C@@H](Cc2ccccc2)C(=O)N[C@H](Cc2ccc(F)c(F)c2)C(=O)N(C)[C@H](C)C(=O)N[C@@H](CC(C)C)C(=O)N2CCC[C@H]2C(=O)O[C@@H]1C,1.7

A selection of 2 entries from above:

| compound | PAMPA (10^-6 cm/s) |
|---|---|
| CC(=O)N1CCC[C@H]1C(=O)N(C)[C@H](CC(C)C)C(=O)N[C@@H]1C(=O)N[C@H](Cc2ccccc2)C(=O)N[C@@H](Cc2ccccc2)C(=O)N[C@H](Cc2ccc(F)c(F)c2)C(=O)N(C)[C@H](C)C(=O)N[C@@H](CC(C)C)C(=O)N2CCC[C@H]2C(=O)O[C@@H]1C | 1.7 |
| CC(=O)N[C@@H]1C(=O)N2CCC[C@H]2C(=O)N(C)[C@H](CC(C)C)C(=O)N[C@H](CC(C)C)C(=O)N[C@H](CC(C)C)C(=O)N(C)[C@H](CC(C)C)C(=O)N[C@@H](C)C(=O)N[C@@H](CC(C)C)C(=O)N2CCC[C@@H]2C(=O)O[C@@H]1C | 0.14 |